Literature values as cited in US20180148480A1, “SYNTHETIC ENHANCEMENT OF THE T-CELL ARM[…] AN ANTI-CANCER THERAPY” (THE JOHNS HOPKINS UNIVERSITY, priority 2015, published 2018).

Sequences of proteins named here, by UniProt entry; tags and fusion partners are left off. Residues count along the entry.
UniProt P07288, 25-261: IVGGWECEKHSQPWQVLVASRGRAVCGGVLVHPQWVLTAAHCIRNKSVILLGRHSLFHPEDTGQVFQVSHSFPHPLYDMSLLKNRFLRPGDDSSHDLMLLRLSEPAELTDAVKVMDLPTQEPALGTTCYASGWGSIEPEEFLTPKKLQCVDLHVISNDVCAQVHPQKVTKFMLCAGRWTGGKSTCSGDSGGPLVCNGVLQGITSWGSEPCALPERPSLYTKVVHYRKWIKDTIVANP

Biological target: PSA (Homo sapiens, UniProt P07288)
Conditions: boronic acid-based PSA inhibitor

Q: Which Ki does the source give for Ahx-FSQn(boro)Bpg here?
A: 0.072 µM
